# According to patent US20040241871A1, “Method and apparatus for analyzing endocrine-distrupting substances in vital sample” (priority 2001, published 2004):
# Set-up: species or system human
# Conditions: in vivo
# Excerpt: Maternal serum, cord serum and mother's milk samples collected from 10 mothers were used (30 samples in total). These samples were used for the analysis test after obtaining the consent from the subjects.
# The GPC column used was Shodex (registered trademark) EV-200AC Column (polystyrene-base hard gel column having an inner diameter of 2 mm and a length of 150 mm) manufactured by Showa Denko K. K.
# A programmed temperature vaporizer (PTV) was equipped and in the GC part, an inactivated silica tube (2 m (length)×0.53 mm (inner diameter)) and capillary columns DB-5 (0.5 m (length)×0.25 mm (inner diameter), film thickness: 0.25 μm; and 60 m (length)×0.25 mm (inner diameter), film thickness: 0.1 μm), both manufactured by J & W Scientific, were used. After the injection of solution, the temperature was kept at 83° C. (for 5 minutes) and then elevated to 172° C. at 1° C./min and further to 270° C. at 50° C./min. The measurement was performed at 280° C.
# Acetone/cyclohexane (3:7) (v/v) was passed through the GPC column for use in the main test at a flow rate of 0.1 ml/min and thereto a sample containing a vital fat, a PCB sample and water were injected and measured on the elution time from the GPC column. As a result, it was confirmed the elution of fat and dye component was completed in 0 to 3.2 minutes after the injection, the elution of PCB sample was completed in 3.2 to 5.2 minutes and the water content started flowing out after 5.2 minutes.
# A calibration curve was prepared for 209 kinds of PCB isomers. […]
# The cord serum (8 ml), the maternal serum (4 ml) and the mother's milk (2 ml) each was subjected to fat extraction according to the method by Patterson et al. More specifically, the sample was charged into a separating funnel, the internal standard substance was added, and then saturated ammonium sulfate, ethanol and hexane were added at a ratio of about 1:1:3. […] Thereafter, the total weight of fat was measured. […]
substance,measurement,value
polychlorinated biphenyl [PCB],"Concentration of Endocrine-Disrupting Substance in Vital Sample, Cord Serum",60.90 ppb
same,"Concentration of Endocrine-Disrupting Substance in Vital Sample, Maternal Serum",98.52 ppb
same,"Concentration of Endocrine-Disrupting Substance in Vital Sample, Mother's Milk",95.02 ppb
